This is an account of results in patent publication US20250382258A1, “NAPHTHALENE-TYPE COMPOUND AND PREPARATION METHOD THEREFORE AND USE THEREFORE” (DALIAN INSTITUTE OF CHEMICAL PHYSICS, CHINESE ACADEMY OF …, priority 2022, published 2025).

The data set can be described thus: water solubility under acidic conditions. Type of data set: physicochemical.

Regarding 2,4-dibenzylamine-1-naphthol, the “water solubility under acidic conditions” value is reported as “lower than 5 mM”.
